Reference: article doi:10.1101/2022.03.02.482667 (bioRxiv, 2022)

Target: His-tagged full-length G3BP1 F15W (human, UniProt Q13283 1-466, F15W)
Assay: pull-down

B1: Cytoplasmic Activating/Proliferation Associated Protein 1 (Caprin1) (natural protein)
chain: MPSATSHSGSGSKSSGPPPPSGSSGSEAAAGAGAAAPASQHPATGTGAVQTEAMKQILGVIDKKLRNLEKKKGKLDDYQERMNKGERLNQDQLDAVSKYQEVTNNLEFAKELQRSFMALSQDIQKTIKKTARREQLMREEAEQKRLKTVLELQYVLDKLGDDEVRTDLKQGLNGVPILSEEELSLLDEFYKLVDPERDMSLRLNEQYEHASIHLWDLLEGKEKPVCGTTYKVLKEIVERVFQSNYFDSTHNHQNGLCEEEEAASAPAVEDQVPEAEPEPAEEYTEQSEVESTEYVNRQFMAETQFTSGEKEQVDEWTVETVEVVNSLQQQPQAASPSVPEPHSLTPVAQADPLVRRQRVQDLMAQMQGPYNFIQDSMLDFENQTLDPAIVSAQPMNPTQNMDMPQLVCPPVHSESRLAQPNQVPVQPEATQVPLVSSTSEGYTASQPLYQPSHATEQRPQKEPIDQIQATISLNTDQTTASSSLPAASQPQVFQAGTSKPLHSSGINVNAAPFQSMQTVFNMNAPVPPVNEPETLKQQNQYQASYNQSFSSQPHQVEQTELQQEQLQTVVGTYHGSPDQSHQVTGNHQQPPQQNTGFPRSNQPYYNSRGVSRGGSRGARGLMNGYRGPANGFRGGYDGYRPSFSNTPNSGYTQSQFSAPRDYSGYQRDGYQQNFKRGSGQSGPRGAPRGRGGPPRPNRGMPQMNTQQVN
  percent reduction in co-purification against WT: ~98%
